Activity calls are given as the source filed them. The rule behind the calls is not given here.
What was measured:
Assay type in all cases: cell-based
[1] = system: Epidermal growth factor receptor (Homo sapiens), P00533 [UNDEFINED MUTATION]; assay: Induction of EGFR exon 19 deletion mutant degradation in human HCC827 cells assessed as reduction in AKT phosphorylation up to 100 nM treated 8 hrs post serum starvation measured after 16 hrs by Western blot analysis
[2] = system: Epidermal growth factor receptor (Homo sapiens), P00533 [UNDEFINED MUTATION]; assay: Induction of EGFR exon 19 deletion mutant degradation in human HCC827 cells assessed as reduction in EGFR autophosphorylation up to 100 nM treated 8 hrs post serum starvation measured after 16 hrs by Western blot analysis
[3] = system: Epidermal growth factor receptor (Homo sapiens), P00533 [L858R]; assay: Induction of EGFR L858R degradation in human H3255 cells assessed as reduction in EGFR autophosphorylation up to 100 nM treated 8 hrs post serum starvation measured after 16 hrs by Western blot analysis
[4] = system: Epidermal growth factor receptor (Homo sapiens), P00533 [UNDEFINED MUTATION]; assay: Induction of EGFR exon 19 deletion mutant degradation in human HCC827 cells up to 100 nM treated 8 hrs post serum starvation measured after 16 hrs by Western blot analysis
[5] = system: Epidermal growth factor receptor (Homo sapiens), P00533 [L858R]; assay: Induction of EGFR L858R degradation in human H3255 cells assessed as reduction in ATK phosphorylation up to 100 nM treated 8 hrs post serum starvation measured after 16 hrs by Western blot analysis
[6] = system: Epidermal growth factor receptor (Homo sapiens), P00533 [L858R]; assay: Induction of EGFR L858R degradation in human H3255 cells up to 100 nM treated 8 hrs post serum starvation measured after 16 hrs by Western blot analysis
[7] = system: von Hippel-Lindau disease tumor suppressor/Epidermal growth factor receptor (Homo sapiens), P00533+P40337 [UNDEFINED MUTATION]; assay: Protac activity at VHL/EGFR exon 19 deletion mutant in human HCC827 cells assessed as induction of EGFR degradation at >=50 nM treated 8 hrs post serum starvation measured after 16 hrs by Western blot analysis relative to control
[8] = system: von Hippel-Lindau disease tumor suppressor/Epidermal growth factor receptor (Homo sapiens), P00533+P40337 [UNDEFINED MUTATION]; assay: Protac activity at VHL/EGFR exon 19 deletion mutant in human HCC827 cells assessed as reduction in EGFR autophosphorylation up to 10 uM treated 8 hrs post serum starvation measured after 16 hrs by Western blot analysis
Summary of the method: (§1)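 Cultured to 80% confluence in RPMI/1640 with 20% FBS at 37 °C and 5% CO2, then switched to serum-free medium for 8 h. Degraders were added over a concentration range up to 10 μM for 16 h, with gefitinib at 1 μM as reference. Lysates in Laemmli buffer were immunoblotted for EGFR, p-EGFR and p-AKT. DC50 came from band quantification by nonlinear regression (variable slope).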

The chains behind the UniProt entries cited, without tags or fusion partners.
von Hippel-Lindau disease tumor suppressor/Epidermal growth factor receptor (Homo sapiens), P00533+P40337, UniProt P40337, whole entry, looked up, stated change not applied: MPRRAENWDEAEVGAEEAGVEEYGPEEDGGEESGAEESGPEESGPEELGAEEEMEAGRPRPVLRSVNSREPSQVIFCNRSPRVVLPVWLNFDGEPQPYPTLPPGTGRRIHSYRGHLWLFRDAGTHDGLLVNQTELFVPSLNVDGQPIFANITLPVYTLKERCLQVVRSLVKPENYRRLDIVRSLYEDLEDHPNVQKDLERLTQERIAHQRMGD

[9] = system: von Hippel-Lindau disease tumor suppressor/Epidermal growth factor receptor (Homo sapiens), P00533+P40337 [L858R]; assay: Protac activity at VHL/EGFR L858R mutant in human H3255 cells assessed as reduction in EGFR autophosphorylation up to 10 uM treated 8 hrs post serum starvation measured after 16 hrs by Western blot analysis; summary of the method: as §1
[10] = system: von Hippel-Lindau disease tumor suppressor/Epidermal growth factor receptor (Homo sapiens), P00533+P40337 [L858R]; assay: Protac activity at VHL/EGFR L858R mutant in human H3255 cells assessed as reduction in AKT phosphorylation up to 10 uM treated 8 hrs post serum starvation measured after 16 hrs by Western blot analysis; summary of the method: as §1
[11] = system: von Hippel-Lindau disease tumor suppressor/Epidermal growth factor receptor (Homo sapiens), P00533+P40337 [UNDEFINED MUTATION]; assay: Protac activity at VHL/EGFR exon 19 deletion mutant in human HCC827 cells assessed as reduction in AKT phosphorylation up to 10 uM treated 8 hrs post serum starvation measured after 16 hrs by Western blot analysis; summary of the method: as §1

| Structure (SMILES) | Activity [1] | Activity [2] | Activity [3] | Activity [4] | Activity [5] | Activity [6] | %max [7] [%] | Activity [8] | Activity [9] | Activity [10] | Activity [11] |
| --- | --- | --- | --- | --- | --- | --- | --- | --- | --- | --- | --- |
| COc1cc2ncnc(Nc3ccc(F)c(Cl)c3)c2cc1OCCCN1CCN(C(=O)CCCCCCCCCC(=O)N[C@H](C(=O)N2C[C@@H](O)C[C@@H]2C(=O)NCc2ccc(-c3scnc3C)cc2)C(C)(C)C)CC1 | Active | Active | Active | inactive | Active | inactive | – | – | – | – | – |
| COc1cc2ncnc(Nc3ccc(F)c(Cl)c3)c2cc1OCCCN1CCN(C(=O)CCCCCCCCCC(=O)N[C@H](C(=O)N2C[C@H](O)C[C@H]2C(=O)NCc2ccc(-c3scnc3C)cc2)C(C)(C)C)CC1 | – | – | – | – | – | – | > 95 | Active | Active | Active | Active |
